Amino acid sequences for entries named in this document (tags omitted). Residues count along the entry.
UniProt P00533, 669-1210 limits assumed: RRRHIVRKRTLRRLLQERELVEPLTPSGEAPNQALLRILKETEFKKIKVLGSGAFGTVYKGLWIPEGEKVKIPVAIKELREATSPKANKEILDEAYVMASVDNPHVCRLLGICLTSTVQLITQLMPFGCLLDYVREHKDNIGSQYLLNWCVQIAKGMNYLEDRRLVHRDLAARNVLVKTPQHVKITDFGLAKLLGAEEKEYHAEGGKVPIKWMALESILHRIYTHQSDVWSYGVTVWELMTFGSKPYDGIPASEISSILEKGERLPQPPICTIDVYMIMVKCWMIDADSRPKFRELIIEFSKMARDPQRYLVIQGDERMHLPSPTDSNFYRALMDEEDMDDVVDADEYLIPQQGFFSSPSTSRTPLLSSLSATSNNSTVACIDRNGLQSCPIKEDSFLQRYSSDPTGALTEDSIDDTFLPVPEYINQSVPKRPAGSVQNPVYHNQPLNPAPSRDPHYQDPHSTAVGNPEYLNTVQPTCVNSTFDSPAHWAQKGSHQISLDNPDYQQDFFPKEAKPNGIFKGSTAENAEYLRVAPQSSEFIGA
UniProt P04626, 676-1255 limits assumed: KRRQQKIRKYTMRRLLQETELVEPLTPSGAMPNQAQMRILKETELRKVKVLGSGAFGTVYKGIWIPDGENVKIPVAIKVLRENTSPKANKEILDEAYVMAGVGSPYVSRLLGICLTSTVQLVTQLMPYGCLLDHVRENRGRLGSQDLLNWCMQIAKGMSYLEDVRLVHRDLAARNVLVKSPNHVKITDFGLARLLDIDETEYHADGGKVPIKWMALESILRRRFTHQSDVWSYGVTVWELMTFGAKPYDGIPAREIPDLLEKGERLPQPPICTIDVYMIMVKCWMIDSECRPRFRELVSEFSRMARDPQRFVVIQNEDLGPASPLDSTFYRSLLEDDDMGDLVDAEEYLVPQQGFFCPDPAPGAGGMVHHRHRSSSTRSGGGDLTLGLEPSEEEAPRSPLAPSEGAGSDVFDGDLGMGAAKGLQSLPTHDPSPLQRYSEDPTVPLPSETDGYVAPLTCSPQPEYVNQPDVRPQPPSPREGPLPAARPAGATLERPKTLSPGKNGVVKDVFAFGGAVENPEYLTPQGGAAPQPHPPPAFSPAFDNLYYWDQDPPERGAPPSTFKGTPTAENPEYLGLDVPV
UniProt P04626, 23-1255: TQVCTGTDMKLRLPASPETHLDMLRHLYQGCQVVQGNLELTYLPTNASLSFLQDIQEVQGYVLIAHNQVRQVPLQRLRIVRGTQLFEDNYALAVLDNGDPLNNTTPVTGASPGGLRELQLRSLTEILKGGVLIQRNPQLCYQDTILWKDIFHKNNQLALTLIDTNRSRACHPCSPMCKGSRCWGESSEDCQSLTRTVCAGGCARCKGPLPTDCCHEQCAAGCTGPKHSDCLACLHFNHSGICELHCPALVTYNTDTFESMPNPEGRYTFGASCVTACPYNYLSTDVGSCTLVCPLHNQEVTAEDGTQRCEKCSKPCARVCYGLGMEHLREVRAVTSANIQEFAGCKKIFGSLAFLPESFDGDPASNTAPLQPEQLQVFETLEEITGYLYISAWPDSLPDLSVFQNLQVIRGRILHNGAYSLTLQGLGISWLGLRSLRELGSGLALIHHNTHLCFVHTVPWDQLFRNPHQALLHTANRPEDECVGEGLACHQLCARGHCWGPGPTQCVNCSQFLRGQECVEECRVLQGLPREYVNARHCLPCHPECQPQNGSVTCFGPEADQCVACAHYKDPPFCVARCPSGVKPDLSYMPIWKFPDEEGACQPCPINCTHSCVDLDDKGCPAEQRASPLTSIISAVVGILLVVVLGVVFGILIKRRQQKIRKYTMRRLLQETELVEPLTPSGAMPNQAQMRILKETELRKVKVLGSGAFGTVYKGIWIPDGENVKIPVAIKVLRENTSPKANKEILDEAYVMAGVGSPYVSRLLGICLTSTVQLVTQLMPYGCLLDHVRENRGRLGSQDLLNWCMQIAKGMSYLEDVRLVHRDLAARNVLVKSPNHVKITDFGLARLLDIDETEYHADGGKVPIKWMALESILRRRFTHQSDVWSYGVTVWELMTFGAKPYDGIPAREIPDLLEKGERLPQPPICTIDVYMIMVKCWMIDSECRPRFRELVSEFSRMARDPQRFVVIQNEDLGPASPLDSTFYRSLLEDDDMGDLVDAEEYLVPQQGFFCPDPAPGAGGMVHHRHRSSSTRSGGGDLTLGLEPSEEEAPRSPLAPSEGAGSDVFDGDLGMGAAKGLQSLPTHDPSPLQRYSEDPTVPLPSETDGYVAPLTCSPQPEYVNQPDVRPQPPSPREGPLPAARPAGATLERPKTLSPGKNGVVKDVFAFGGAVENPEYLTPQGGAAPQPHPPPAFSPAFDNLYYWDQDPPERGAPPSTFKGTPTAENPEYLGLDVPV

According to patent US20070149546A1, “4-Anilino-quinazoline derivatives as antiproliferative agents” (priority 2003, published 2007):

Key:
EGFR kinase = target: T1, EGFR kinase (Homo sapiens, UniProt P00533); test: Protein tyrosine kinase phosphorylation assay, Test (a): EGFR; type: biochemical
T1 construct: Recombinant intracellular fragments of EGFR and erbB2; made in house; host or cells: baculovirus/Sf21 insect cells
Procedure: (§1) This test measures the ability of a test compound to inhibit the phosphorylation of a tyrosine containing polypeptide substrate by an enzyme selected from the EGFR kinase and erbB2 kinase.
(§2) Recombinant intracellular fragments of EGFR and erbB2 (accession numbers X00588 and X03363 respectively) were cloned and expressed in the baculovirus/Sf21 system. […]
(§3) Constitutive kinase activity of these recombinant proteins was determined by their ability to phosphorylate a synthetic peptide (made up of a random co-polymer of Glutamic Acid, Alanine and Tyrosine in the ratio of 6:3:1). […]
(§4) The immobilised phospho-peptide product of the reaction was detected by immunological methods. […] After further washing, HRP activity in each well of the plate was measured colorimetrically using 22′-Azino-di-[3-ethylbenzthiazoline sulfonate (6)] diammonium salt crystals (ABTS™ from Roche) as a substrate.
(§5) Kinase inhibition for a given compound was expressed as an IC50 value. […] The range of phosphorylation was calculated from the positive (vehicle plus ATP) and negative (vehicle minus ATP) control values.

erbB2 [1] = target: T2, erbB2 (Homo sapiens, UniProt P04626); test: Protein tyrosine kinase phosphorylation assay, Test (a): erbB2; type: biochemical; set-up: Recombinant intracellular fragments of EGFR and erbB2; made in house; host or cells: baculovirus/Sf21 insect cells
Procedure: as §1, §2, §3, §4, §5

erbB2 [2] = target: T2, erbB2; test: Clone 24 phospho-erbB2 cell assay, Test (e); type: cell-based; set-up: a cell line that overexpresses full length wild type erbB2 protein; expressed in transfected cells; host or cells: MCF7 (breast carcinoma) derived Clone 24 cells
Procedure: The cells were resuspended in Growth Medium.
3 days later, Growth Medium was removed from the wells and replaced with 100 ul Assay Medium (phenol red free DM , 2 mM glutamine, 1.2 mg/ml G418) either with or without erbB inhibitor compound. Plates were returned to the incubator for 4 hours and then 20 μl of 20% formaldehyde solution in PBS was added to each well and the plate was left at room temperature for 30 minutes. This fixative solution was removed with a multichannel pipette, 100 μl of PBS was added to each well and then removed with a multichannel pipette and then 50 μl PBS was added to each well. Plates were then sealed and stored for up to 2 weeks at 4° C.
Immunostaining was performed at room temperature. […]
The Fluorescence signal is each well was measured using an Acumen Explorer Instrument (Acumen Bioscience Ltd.), a plate reader that can be used to rapidly quantitate features of images generated by laser-scanning. […] Fluorescence dose response data obtained with each compound was exported into a suitable software package (such as Origin) to perform curve fitting analysis. Inhibition of erbB2 phosphorylation was expressed as an IC50 value.

With `C[C@H](CN(C)C)Oc1cccc2ncnc(Nc3ccc(OCc4cnccn4)c(Cl)c3)c12` [Example 24, N-[3-Chloro-4-(pyrazin-2-ylmethoxy)phenyl]-5-[(1R)-2-(dimethylamino)-1-methylethoxy]quinazolin-4-amine] the IC50 (EGFR kinase) was 64 nM, the IC50 (erbB2 [1]) was 2 nM and the IC50 (erbB2 [2]) was 1 nM.
